The values below come from US10526294B2, “Pyrrolobenzodiazepines and conjugates thereof” (priority 2016, dated 2020).

The experiment concerns SKBR3 cells. Kind of experiment: Cell viability assay (CellTiter-Glo), SKBR3. Particulars: Homo sapiens, SK-BR-3; conjugates (Table II); HER2 expressing cells; 72 h. It is filed as cell-based. How it is done: Cell Viability Assay for Antibody-Polymer-Drug Conjugates.
PBD compounds and conjugates thereof were evaluated for their antiproliferation properties in tumor cell lines in vitro using CellTiter-Glo® (Promega Corp). Cells were plated in black walled 96-well plate and allowed to adhere overnight at 37° C. in a humidified atmosphere of 5% CO2. BT474, SKBR3, NCI-N87 cells (HER2 expressing cells), JIMT1 cells (HER2 medium expression level cells) and MCF7 cells (HER2 low expressing levels cells) and were plated at a density of 5,000 cells per well. The next day the medium was replaced with 50 μL fresh medium and 50 μL of 2× stocks of PBD compounds or antibody-PBD conjugate were added to appropriate wells, mixed and incubated for 72 h. CellTiter-Glo® reagent was added to the wells at room temperature and the luminescent signal was measured after 10 min using a SpectraMax M5 plate reader (Molecular Devices). Dose response curves were generated using SoftMax Pro software. IC50 values were determined from four-parameter curve fitting.

By IC50 is commonly meant the point on the concentration scale where inhibition reaches its midpoint. A low value points to greater potency.

Compound `C=C1CC2C=Nc3cc(OCCCC(=O)Nc4cn(C)c(C(=O)Nc5ccc(-c6cc(C(=O)n7ccc8cc(C(=O)OC)ccc87)n(C)c6)cc5)n4)c(OC)cc3C(=O)N2C1` (stereo not shown) [Compound 109, methyl 1-(4-(4-(4-(4-((7-methoxy-2-methylene-5-oxo-2,3,5,11a-tetrahydro-1H-benzo[e]pyrrolo[1,2-a][1,4]diazepin-8-yl)oxy)butanamido)-1-methyl-1H-imidazole-2-carboxamido)phenyl)-1-methyl-1H-pyrrole-2-carbonyl)-1H-indole-5-carboxylate] returned an IC50 of 0.31 nM.
